Among the data in patent US9527851B2, “Pyrrole six-membered heteroaryl ring derivative, preparation method thereof, and medicinal uses thereof” (Jiangsu Hengrui Medicine Co., Ltd., priority 2011, dated 2016) are IC50 values, retold here.

Amino acid sequences for entries named in this document (tags omitted). A change or cut given only in a name is not applied to a line headed by its entry.
UniProt P23458: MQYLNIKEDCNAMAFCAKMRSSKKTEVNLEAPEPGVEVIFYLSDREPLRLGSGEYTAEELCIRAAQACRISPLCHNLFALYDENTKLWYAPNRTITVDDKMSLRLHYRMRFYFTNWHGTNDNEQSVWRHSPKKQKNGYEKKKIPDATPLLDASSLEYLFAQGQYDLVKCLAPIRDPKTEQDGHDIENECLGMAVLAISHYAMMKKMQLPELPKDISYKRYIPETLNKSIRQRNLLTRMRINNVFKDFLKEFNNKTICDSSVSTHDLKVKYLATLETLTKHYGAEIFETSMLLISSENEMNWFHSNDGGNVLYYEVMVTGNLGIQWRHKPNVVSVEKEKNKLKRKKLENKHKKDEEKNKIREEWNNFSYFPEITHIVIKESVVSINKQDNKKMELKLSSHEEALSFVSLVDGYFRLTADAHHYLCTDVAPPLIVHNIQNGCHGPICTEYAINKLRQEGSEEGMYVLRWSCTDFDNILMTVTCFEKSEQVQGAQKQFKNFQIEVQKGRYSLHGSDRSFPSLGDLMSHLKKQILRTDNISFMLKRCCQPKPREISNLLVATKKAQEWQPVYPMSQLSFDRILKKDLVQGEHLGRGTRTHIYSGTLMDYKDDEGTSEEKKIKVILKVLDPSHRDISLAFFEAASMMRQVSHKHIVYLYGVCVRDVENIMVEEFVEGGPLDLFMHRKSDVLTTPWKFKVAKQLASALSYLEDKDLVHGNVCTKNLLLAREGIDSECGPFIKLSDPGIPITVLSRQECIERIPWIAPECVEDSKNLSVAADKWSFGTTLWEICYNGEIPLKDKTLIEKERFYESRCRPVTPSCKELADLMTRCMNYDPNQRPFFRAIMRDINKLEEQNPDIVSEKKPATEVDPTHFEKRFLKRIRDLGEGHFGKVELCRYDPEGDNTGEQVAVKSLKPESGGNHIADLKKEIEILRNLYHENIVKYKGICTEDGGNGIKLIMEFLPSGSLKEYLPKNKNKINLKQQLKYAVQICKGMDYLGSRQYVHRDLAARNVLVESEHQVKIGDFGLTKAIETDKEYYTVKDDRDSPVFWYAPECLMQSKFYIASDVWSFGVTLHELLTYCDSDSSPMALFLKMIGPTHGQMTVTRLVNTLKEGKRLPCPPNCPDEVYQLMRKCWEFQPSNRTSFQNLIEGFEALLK

This assay addresses JAK1 kinase (Homo sapiens (Human), UniProt P23458). Nature of the assay: Assay for inhibiting JAK1 kinase (in vitro kinase assay, HRP anti-phosphotyrosine antibody/TMB absorbance). The class given is biochemical. As to conditions: 20 μM ATP, 50 minutes at room temperature; read-out: IC50 (JAK1/Bio). The method, then: In vitro activity of compounds of the present invention for inhibiting JAK1 kinase was determined by the following method.
IC50 values of test compounds was calculated from the data of the test compounds in inhibiting the activity of JAK1 kinase at different concentrations.
For `CN(c1ncnc2[nH]ccc12)[C@H]1C[C@H]2CNC(=O)C[C@H]2C1` [Example 40, (4aR,6R,7aR)-6-(Methyl(7H-pyrrolo[2,3-d]pyrimidin-4-yl)amino) hexahydro-1H-cyclopenta[c]pyridin-3(2H)-one], the IC50 stood at 98 nM.

`CN(c1ncnc2[nH]ccc12)[C@@H]1C[C@H]2CNC(=O)C[C@H]2C1` [Example 41, (4aR,6S,7aR)-6-(Methyl(7H-pyrrolo[2,3-d]pyrimidin-4-yl)amino) hexahydro-1H-cyclopenta[c]pyridin-3(2H)-one]: the IC50 is 80 nM.

As for `Cc1nsc(N2C[C@H]3C[C@H](N(C)c4ncnc5[nH]ccc45)C[C@H]3C2)n1` [Example 65, N-methyl-N-((3aR,5S,6aS)-2-(3-methyl-1,2,4-thiadiazol-5-yl)octahydrocyclopenta[c]pyrrol-5-yl)-7H-pyrrolo[2,3-d]pyrimidin-4-amine], the IC50 was found to be 50 nM. On to `CN(c1ncnc2[nH]ccc12)[C@H]1C[C@H]2CNC(=O)C[C@H]2C1` [Example 147, (4aR,6R,7aR)-6-(methyl(7H-pyrrolo[2,3-d]pyrimidin-4-yl)amino)hexahydro-1H-cyclopenta[c]pyridin-3(2H)-one], for which the IC50 was determined as 1 nM.
